Data as given in patent publication US8738114B2, “Systems and methods for measuring and modeling in vivo manganese ion transport in a subject” (Celtrast LLC, priority 2009, dated 2014).
Like-named read-outs stand apart in the source and are kept apart here.

What was measured:
[1] = not given; remark: listed apart in the source
[2] = Model 1, 65 nmoles/g MnCl2 i.v. infusion
[3] = Model 1, 119 nmoles/g MnCl2 i.v. infusion
[4] = Model 1, 190 nmoles/g MnCl2 i.v. infusion
[5] = Model 1, 280 nmoles/g MnCl2 i.v. infusion
[6] = Model 2, 65 nmoles/g MnCl2 i.v. infusion
[7] = Model 2, 119 nmoles/g MnCl2 i.v. infusion
[8] = Model 2, 190 nmoles/g MnCl2 i.v. infusion
[9] = Model 2, 280 nmoles/g MnCl2 i.v. infusion
[10] = Model 3, 65 nmoles/g MnCl2 i.v. infusion
[11] = Model 3, 119 nmoles/g MnCl2 i.v. infusion
[12] = Model 3, 190 nmoles/g MnCl2 i.v. infusion
[13] = Model 3, 280 nmoles/g MnCl2 i.v. infusion

manganese chloride [MnCl2]
approximate efflux transfer rate k21 for the infarcted region (MI mice, 190 nmoles/g MnCl2, from linear fit Eq. [15] at equivalent dose of approximately 400 nmoles/g): ~0.52 h⁻¹ | efflux transfer rate k21 for the viable region (same infusion dose (190 nmoles/g MnCl2)): 0.22 h⁻¹ | k10 transfer rate parameter (Mn^2+ efflux from blood to organs other than heart) [1, 2]: 5.9 h⁻¹ | k12 transfer rate parameter (blood to heart, influx) [1, 2]: 0.04/0.04/0.04 h^−1 | k21(a,) transfer rate parameter (heart to blood, efflux) [1, 2]: 0.08 h⁻¹ | k10 transfer rate parameter (Mn^2+ efflux from blood to organs other than heart) [1, 3]: 6.5 h⁻¹ | k12 transfer rate parameter (blood to heart, influx) [1, 3]: 0.06 h⁻¹ | k21(a,) transfer rate parameter (heart to blood, efflux) [1, 3]: 0.11 h⁻¹ | k10 transfer rate parameter (Mn^2+ efflux from blood to organs other than heart) [1, 4]: 6.4 h⁻¹ | k12 transfer rate parameter (blood to heart, influx) [1, 4]: 0.06/0.06/0.06 h^−1 | k21(a,) transfer rate parameter (heart to blood, efflux) [1, 4]: 0.22 h⁻¹ | k10 transfer rate parameter (Mn^2+ efflux from blood to organs other than heart) [1, 5]: 6.9/6.9/6.9 h^−1 | k12 transfer rate parameter (blood to heart, influx) [1, 5]: 0.07/0.07/0.07 h^−1 | k21(a,) transfer rate parameter (heart to blood, efflux) [1, 5]: 0.37 h⁻¹ | k10 transfer rate parameter (Mn^2+ efflux from blood to organs other than heart) [1, 6]: 6.0 h⁻¹ | k12 transfer rate parameter (blood to heart, influx) [1, 6]: 0.04/0.04/0.04 h^−1 | k21(a,) transfer rate parameter (free cytosol to blood, efflux) [1, 6]: 0.51 h⁻¹ | k23 transfer rate parameter (uptake into cytosolic compartments) [1, 6]: 12.4 h⁻¹ | k32 transfer rate parameter (release from cytosolic compartments) [1, 6]: 2.4 h⁻¹ | k10 transfer rate parameter (Mn^2+ efflux from blood to organs other than heart) [1, 7]: 6.1 h⁻¹ | k12 transfer rate parameter (blood to heart, influx) [1, 7]: 0.05 h⁻¹ | k21(a,) transfer rate parameter (free cytosol to blood, efflux) [1, 7]: 0.54 h⁻¹ | k23 transfer rate parameter (uptake into cytosolic compartments) [1, 7]: 11.8 h⁻¹ | k32 transfer rate parameter (release from cytosolic compartments) [1, 7]: 3.1 h⁻¹ | k10 transfer rate parameter (Mn^2+ efflux from blood to organs other than heart) [1, 8]: 6.7 h⁻¹ | k12 transfer rate parameter (blood to heart, influx) [1, 8]: 0.06/0.06/0.06 h^−1 | k21(a,) transfer rate parameter (free cytosol to blood, efflux) [1, 8]: 0.62 h⁻¹ | k23 transfer rate parameter (uptake into cytosolic compartments) [1, 8]: 7.4 h⁻¹ | k32 transfer rate parameter (release from cytosolic compartments) [1, 8]: 4.3 h⁻¹ | k10 transfer rate parameter (Mn^2+ efflux from blood to organs other than heart) [1, 9]: 6.9/6.9/6.9 h^−1 | k12 transfer rate parameter (blood to heart, influx) [1, 9]: 0.07/0.07/0.07 h^−1 | k21(a,) transfer rate parameter (free cytosol to blood, efflux) [1, 9]: 0.91 h⁻¹ | k23 transfer rate parameter (uptake into cytosolic compartments) [1, 9]: 5.9 h⁻¹ | k32 transfer rate parameter (release from cytosolic compartments) [1, 9]: 4.5 h⁻¹ | rate of Mn^2+ uptake into the intracellular compartments relative to the efflux rate ([1]; Model 2 prediction): approximately 12 times | k10 transfer rate parameter (Mn^2+ efflux from blood to organs other than heart) [1, 10]: 6.0 h⁻¹ | k12 transfer rate parameter (blood to heart, influx) [1, 10]: 0.04/0.04/0.04 h^−1 | k21(a,) transfer rate parameter (free cytosol to blood, efflux; k21a = NCX in Model 3) [1, 10]: 0.60 h⁻¹ | k23 transfer rate parameter (free cytosol to sarcoplasmic reticulum) [1, 10]: 0.60 h⁻¹ | k24 transfer rate parameter (free cytosol to mitochondria) [1, 10]: —/—/0.07 h^−1 | k32 transfer rate parameter (sarcoplasmic reticulum to free cytosol) [1, 10]: 0.19 h⁻¹ | k42 transfer rate parameter (mitochondria to free cytosol) [1, 10]: —/—/0.31 h^−1 | k10 transfer rate parameter (Mn^2+ efflux from blood to organs other than heart) [1, 11]: 6.5 h⁻¹ | k12 transfer rate parameter (blood to heart, influx) [1, 11]: 0.05 h⁻¹ | k21(a,) transfer rate parameter (free cytosol to blood, efflux; k21a = NCX in Model 3) [1, 11]: 0.58 h⁻¹ | k23 transfer rate parameter (free cytosol to sarcoplasmic reticulum) [1, 11]: 0.61 h⁻¹ | k24 transfer rate parameter (free cytosol to mitochondria) [1, 11]: —/—/0.07 h^−1 | k32 transfer rate parameter (sarcoplasmic reticulum to free cytosol) [1, 11]: 0.28 h⁻¹ | k42 transfer rate parameter (mitochondria to free cytosol) [1, 11]: —/—/0.37 h^−1 | k10 transfer rate parameter (Mn^2+ efflux from blood to organs other than heart) [1, 12]: 6.6 h⁻¹ | k12 transfer rate parameter (blood to heart, influx) [1, 12]: 0.06/0.06/0.06 h^−1 | k21(a,) transfer rate parameter (free cytosol to blood, efflux; k21a = NCX in Model 3) [1, 12]: 0.71 h⁻¹ | k23 transfer rate parameter (free cytosol to sarcoplasmic reticulum) [1, 12]: 0.48 h⁻¹ | k24 transfer rate parameter (free cytosol to mitochondria) [1, 12]: —/—/0.05 h^−1 | k32 transfer rate parameter (sarcoplasmic reticulum to free cytosol) [1, 12]: 0.37 h⁻¹ | k42 transfer rate parameter (mitochondria to free cytosol) [1, 12]: —/—/0.75 h^−1 | k10 transfer rate parameter (Mn^2+ efflux from blood to organs other than heart) [1, 13]: 6.9/6.9/6.9 h^−1 | k12 transfer rate parameter (blood to heart, influx) [1, 13]: 0.07/0.07/0.07 h^−1 | k21(a,) transfer rate parameter (free cytosol to blood, efflux; k21a = NCX in Model 3) [1, 13]: 0.79 h⁻¹ | k23 transfer rate parameter (free cytosol to sarcoplasmic reticulum) [1, 13]: 0.41 h⁻¹ | k24 transfer rate parameter (free cytosol to mitochondria) [1, 13]: —/—/0.05 h^−1 | k32 transfer rate parameter (sarcoplasmic reticulum to free cytosol) [1, 13]: 0.57 h⁻¹ | k42 transfer rate parameter (mitochondria to free cytosol) [1, 13]: —/—/0.87 h^−1 | blood pool clearance ([1]; post-MnCl2 infusion): ~12 min
